For one compound, EC50 results are on record in article PMC4804703 (ACS chemical neuroscience, 2015).

Amino acid sequences for entries named in this document (tags omitted).
UniProt P47746, whole entry: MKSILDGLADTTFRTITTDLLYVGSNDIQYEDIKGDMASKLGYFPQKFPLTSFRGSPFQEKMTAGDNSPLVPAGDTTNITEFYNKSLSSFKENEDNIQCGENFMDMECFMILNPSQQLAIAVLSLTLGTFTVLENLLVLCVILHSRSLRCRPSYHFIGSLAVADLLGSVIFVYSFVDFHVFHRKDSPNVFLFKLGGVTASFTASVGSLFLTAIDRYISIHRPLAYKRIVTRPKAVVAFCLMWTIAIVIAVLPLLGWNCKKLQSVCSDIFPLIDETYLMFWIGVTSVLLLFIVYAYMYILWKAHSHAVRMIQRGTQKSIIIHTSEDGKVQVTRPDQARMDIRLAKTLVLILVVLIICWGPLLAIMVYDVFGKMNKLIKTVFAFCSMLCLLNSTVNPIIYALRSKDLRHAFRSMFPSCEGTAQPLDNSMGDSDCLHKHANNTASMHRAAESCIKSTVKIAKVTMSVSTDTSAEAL

The target in the assay is CB1R in mouse hippocampus (Mus musculus, UniProt P47746). Kind of assay: [^35S]GTPγS binding, mouse hippocampus membranes. The assay is classed as biochemical.

Consider `CCCCC/C=C\C/C=C\C/C=C\C/C=C\CCCC(=O)NCCO` [AEA, arachidonoylethanolamide, reference compound], for which the EC50 amounted to 4.2 ± 1 µM.
